Legend:
[1] = test system: Ovarian follicular cells, lines 100B-OR-5A, 100B5-OR-B, 100B5-OR-D; test: 8-Br-cAMP / FSH stimulation of progesterone secretion by cultured follicular cells; assay type: cell-based, human; conditions: FSH 1IU/ml, 48 hours
From the text: (§1) Cells in SC-2 were propagated and sub-cultured as above more than 20 times. Medium was collected from each sub-culture at regular intervals and assayed for the presence of secreted estradiol (E2), progesterone, luteinizing hormone (LH), follicle stimulating hormone (FSH), thyroid stimulating hormone (TSH), prolactin, testosterone and the β-chain of human chorionic gonadotrophin (B-hCG). Quantitative radioimmune assays (RIA) were employed as described in Radioassay Systems in Clinical Endocrinology, 1981, Ed. G. E. Abraham, {Basel: Marcel Dekker}, pp. 475-529. Progesterone, testosterone, estradiol, prolactin, thyroid stimulating hormone and luteinizing hormone were assayed by the Coat-a-Count procedure (Diagnostic Products Corp., Los Angeles). Follicle-stimulating hormone and B-hCG were assayed by the SERONO MATAclone procedure (Serono, Italy).
(§2) Ovarian follicular cells, lines 100B-OR-5A, 100B5-OR-B, and 100B5-OR-D, were established in culture as described in Example 1 and maintained and sub-cultured as described in Example 2. From these lines were created sub-cultures designated 1, 2, and 3 respectively, which were employed in the stimulation protocol described below.
(b) cAMP stimulation: Cultures were exposed to 1 mM 8-Br-cAMP (Sigma) or to FSH (1IU/ml; Metrodin [urofollitropin], Lot No. 07321070, Serono, Italy). […] FSH stimulation for 48 hours led to an increase in progesterone content of 6.5 to 7.7 fold.

[2] = test system: Ovarian follicular cells, lines 100B-OR-5A, 100B5-OR-B, 100B5-OR-D; test: hCG (gonadotrophin) stimulation of steroid secretion by cultured follicular cells, RIA; assay type: cell-based, human; conditions: for E2 + hCG / Prog + hCG: hCG 750 ng/ml in DM-1
From the text: as §1, §2
(a) Gonadotrophin stimulation: Human chorionic gonadotrophin (hCG; Sigma) was added to the culture medium (DM-1) in the amount of 750 ng/ml. After 70 to 76 hours, progesterone content of the medium was increased approximately two-fold over control. Estradiol synthesis was also stimulated by hCG, leading to an increased estradiol content of 0.4 to 0.5 fold over control within 30 hours.

Substance	Prog ([1]; culture 1)	Prog ([1]; culture 2)	Prog ([1]; culture 3)	E2 + hCG ([2]; culture 1)	Prog + hCG ([2]; culture 1)	E2 + hCG ([2]; culture 2)	Prog + hCG ([2]; culture 2)	progesterone content of the medium, increase over control ([2]; hCG 750 ng/ml, after 70 to 76 hours)
FSH: FSH (1IU/ml; Metrodin [urofollitropin], Lot No. 07321070, Serono, Italy)	17.2 ng/10^6 cells	10.8 ng/10^6 cells	18.9 ng/10^6 cells					
hCG: Human chorionic gonadotrophin (hCG; Sigma)				43 pg/mL	12.1 ng/mL	76 pg/mL	19.8 ng/mL	approximately two-fold
